Consider 29 compounds from PubChem BioAssay AID463115 (University of Pittsburgh Molecular Library Screening Center, 2010).

Chains of the proteins cited; added tags and fusions are not shown. Residues count along the entry.
UniProt P09958, 108-714 limits assumed: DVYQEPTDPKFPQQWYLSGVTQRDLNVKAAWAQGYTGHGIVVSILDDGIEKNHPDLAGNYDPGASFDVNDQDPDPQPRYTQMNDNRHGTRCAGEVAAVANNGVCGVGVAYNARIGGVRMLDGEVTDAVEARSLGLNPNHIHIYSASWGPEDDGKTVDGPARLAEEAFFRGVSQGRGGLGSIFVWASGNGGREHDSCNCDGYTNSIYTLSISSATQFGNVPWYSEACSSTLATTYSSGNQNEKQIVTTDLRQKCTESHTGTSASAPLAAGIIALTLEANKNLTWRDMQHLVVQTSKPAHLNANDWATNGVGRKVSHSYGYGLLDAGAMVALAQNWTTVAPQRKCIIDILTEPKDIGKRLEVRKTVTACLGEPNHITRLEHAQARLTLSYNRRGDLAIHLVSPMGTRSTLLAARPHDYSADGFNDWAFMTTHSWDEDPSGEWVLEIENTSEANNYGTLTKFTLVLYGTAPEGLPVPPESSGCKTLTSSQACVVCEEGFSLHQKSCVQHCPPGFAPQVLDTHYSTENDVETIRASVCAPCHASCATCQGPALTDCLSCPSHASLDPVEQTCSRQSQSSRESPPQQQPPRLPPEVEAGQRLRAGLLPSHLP

Molecules are shown by their SMILES. Only a part is listed here, and it is no random draw. Activity calls are given as the source filed them. Rule as the data show it: active = inhibition above about 25%; inactive = the rest.

In this test the target is Furin (Homo sapiens) (UniProt P09958). Nature of the test: furin protease activity blockers – biochemical, fluorescence intensity, primary screen (AID 463115). Particulars: purified furin, fluorogenic substrate cleavage, stronger effect = higher value; at 30 µM unless noted.
Consider `Cc1ccc(OCC(C)C)c(CN(CCCl)CCCl)c1`, for which the inhibition (commonly the change of the read-out against control, counted positive when it falls) is inactive: -21.4%.

Regarding `COc1ccc(NC2CCN(CCc3ccccc3)CC2)c(OC)c1`, the inhibition was inactive: -25.9%.

Consider `CCOc1ccc(C)cc1CN(CCCl)CCCl`, for which the inhibition was inactive: -27.9%.

On to `CCOC(=O)N1CCC(Nc2ccc(OC)cc2)CC1`, for which the inhibition is inactive: -21.2%.

Regarding `O=C(OC1CN2CCC1CC2)C1c2ccccc2Oc2ccccc21` (centres undefined), the inhibition is inactive: -11.3%.

On to `N#CC1(Nc2ccccc2)CCN(Cc2ccccc2)CC1`, for which the inhibition is inactive: -24.3%.

Consider `O=C(NCC1(N2CCOCC2)CCCCC1)c1cc2ccccc2o1`, for which the inhibition was inactive: -12.9% [at 20 µM].

As for `COc1ccc(C(=O)NCC2(N3CCCCC3)CCCCC2)c(OC)c1OC`, the inhibition is inactive: 3.82%.

With `CN1CCC(Nc2cccc(F)c2)CC1`, the inhibition was inactive: -5.62% [at 20 µM].

For the compound `COc1ccc(CN(CCCl)CCCl)cc1Cl`, the inhibition is inactive: -23%.

As for `CN(C)c1cccc(C(=O)NCC2(N3CCCCC3)CCCCC2)c1`, the inhibition is inactive: -18.9%.

Take `CC(C)c1ccc(NC2CCN(C(=O)OC(C)(C)C)CC2)cc1`: the inhibition was inactive: -6.82%.

Consider `CN1CCN(CCOC(=O)C(O)(c2ccccc2)c2ccccc2)CC1`, for which the inhibition is inactive: 3.43%.

For `COc1ccc(NC2CCN(C(=O)OC(C)(C)C)CC2)cc1`, the inhibition is inactive: -18.1%.

Take `O=C(NCC1(N2CCOCC2)CCCCC1)c1cc(=O)[nH]c2ccccc12`: the inhibition was inactive: -11.7% [at 20 µM].

For `O=C(NCC1(N2CCCCC2)CCCCC1)c1cccc([N+](=O)[O-])c1`, the inhibition is inactive: -32.3%.

`N#CC1(Nc2ccccc2)CCN(CCc2ccccc2)CC1`: the inhibition is inactive: -14.9%.

`c1ccc(CN2CCC(Nc3ccccc3)CC2)cc1`: the inhibition is inactive: -18.1% [at 20 µM].

On to `N#Cc1ccc(C(=O)NCC2(N3CCCCC3)CCCCC2)cc1`, for which the inhibition is inactive: -15.4%.

With `O=C(OC1CN2CCC1CC2)C1c2ccccc2C=Cc2ccccc21` (centres undefined), the inhibition is inactive: -5.42%.

On to `N/C(=N\O)c1c(N)no[n+]1[O-]`, for which the inhibition was inactive: -5.54%.

On to `COc1ccc(C(=O)NCC2(N3CCOCC3)CCCCC2)cc1OC`, for which the inhibition is inactive: 7.14%.

On to `CCCOc1ccc(C)cc1CN(CCCl)CCCl`, for which the inhibition was inactive: -32.3%.

Turning to `CCC(CO)(C(=O)OC1CN2CCC1CC2)c1ccccc1` (centres undefined), the inhibition was inactive: -15.1%.

As for `COc1cc(OC)cc(C(=O)NCC2(N3CCOCC3)CCCCC2)c1`, the inhibition was inactive: -19%.

Regarding `CC(C)(C)OC(=O)N1CCC(Nc2ccccc2)CC1`, the inhibition is inactive: -19.4%.

As for `CCOc1ncccc1C(=O)NCC1(N2CCOCC2)CCCCC1`, the inhibition is inactive: -6.36%.

In the case of `CN(C)c1ccc(C(=O)NCC2(N3CCCCC3)CCCCC2)cc1`, the inhibition was inactive: -28.4%.

`CCN1CCC(Nc2cccc(F)c2)CC1`: the inhibition was inactive: -23.9%.
